Patent US10253000B2, “Pyridazin-3(2H)-one derivatives as monoamine oxidase selective isoform B inhibitors” (UNIVERSIDADE DE VIGO, priority 2014, dated 2019)

Chains of the proteins cited; added tags and fusions are not shown.
UniProt P21397, whole entry: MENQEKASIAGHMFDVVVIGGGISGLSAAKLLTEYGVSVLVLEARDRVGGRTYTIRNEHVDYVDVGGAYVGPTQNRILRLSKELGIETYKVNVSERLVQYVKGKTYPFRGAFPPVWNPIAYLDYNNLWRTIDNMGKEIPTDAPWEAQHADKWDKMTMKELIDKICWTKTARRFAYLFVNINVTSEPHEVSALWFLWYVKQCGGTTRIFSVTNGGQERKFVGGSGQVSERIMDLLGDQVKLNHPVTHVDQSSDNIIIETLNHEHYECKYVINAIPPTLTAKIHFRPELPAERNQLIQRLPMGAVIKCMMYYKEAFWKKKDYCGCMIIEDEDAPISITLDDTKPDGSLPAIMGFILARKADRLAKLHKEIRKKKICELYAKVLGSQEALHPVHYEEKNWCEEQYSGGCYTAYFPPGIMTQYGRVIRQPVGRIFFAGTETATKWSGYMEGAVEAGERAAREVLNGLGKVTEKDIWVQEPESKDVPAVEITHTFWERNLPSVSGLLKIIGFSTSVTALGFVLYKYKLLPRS

Molecular target: T1, human recombinant MAO-A (Homo sapiens, UniProt P21397)
T1 construct: purchased Sigma-Aldrich Química S.A., Alcobendas, Spain; host or cells: insect cells (BTI-TN-5B1-4) infected with recombinant baculovirus
Assay: Determination of MAO isoforms activity (Amplex Red, p-tyramine), MAO-A
Format: biochemical
Conditions: p-tyramine 1 mM, mean ± spread of 5 experiments, read-out: IC50 hMAO-A

IC50: 6.56 ± 0.76 µM
Compound: CC(C)NNC(=O)c1ccncc1 [Iproniazid, iproniazid, reference compound]
